{
  "source": "paper PMC11856326",
  "about": "“Structure-activity studies of bispyridinium antinicotinics to select candidates to treat soman intoxication as part of a combined therapy” (2025)",
  "key": {"mice": {"test_system": "mice", "conditions": "R = H column (also common oximes), cited from earlier work; for LD50 i.m. mice: number in brackets = i.m.; for LD50 i.v. mice: bispyridinium dibromides"}, "[1]": {"test_system": "human muscle nicotinic receptor (foetal and adult forms) in CN21 cells", "conditions": "cited from earlier work"}, "guinea-pigs": {"test_system": "guinea-pigs", "assay": "Adverse effects of MB442 without soman challenge", "conditions": "28.78 mg·kg^−1, no soman challenge"}, "[2]": {"test_system": "human muscle nicotinic receptor (foetal and adult forms) in CN21 cells", "assay": "Nicotinic calcium response assay in CN21 cells (Fluo-4, response to ACh)", "conditions": "tert-butyl series R = C(CH3)3, mean ± SEM"}, "[3]": {"conditions": "plasma; cited from earlier work"}},
  "note": "Several values for one entry are separate records, joined by “and”; a condition that tells them apart may be missing. Equal entries are not always repeated. Where two headings read alike, the source gives them in different places.",
  "data": [
    {"smiles": "O/N=C/c1cc[n+](COC[n+]2ccc(/C=N/O)cc2)cc1", "values": [
      {"measurement": "LD50 i.m. mice", "setting": "mice", "result": 188, "unit": "mg/kg"},
      {"measurement": "LD50 i.v. mice", "setting": "mice", "result": 70, "unit": "mg/kg"}
    ]},
    {"smiles": "COc1cc2c3cc1Oc1cc(ccc1O)C[C@@H]1c4c(cc(OC)c(O)c4Oc4ccc(cc4)C[C@@H]3N(C)CC2)CC[N+]1(C)C", "values": [
      {"measurement": "block of the nicotinic Ca2+ response to ACh", "setting": "[1]; 50 µM, atropine 20 µM present", "result": "blocked completely"}
    ]},
    {"smiles": "NC(=O)c1cc[n+](COC[n+]2ccccc2/C=N/O)cc1", "values": [
      {"measurement": "log IC50", "setting": "[1]; CN21 cell line", "result": "−2.76"},
      {"measurement": "LD50 i.m. mice", "setting": "mice", "result": 671, "unit": "mg/kg"},
      {"measurement": "LD50 i.v. mice", "setting": "mice", "result": 178, "unit": "mg/kg"}
    ]},
    {"smiles": "c1cc[n+](CCCCC[n+]2ccccc2)cc1", "values": [
      {"measurement": "Log IC50 [M]", "setting": "[1]; log10 value, unsubstituted series R = H, ACh 10 µM, mean ± SEM", "result": "−2.56 ± 0.16", "unit": "M"},
      {"measurement": "Hill slope", "setting": "[1]; unsubstituted series R = H, mean ± SEM", "result": "−0.60 and −0.60 ± 0.13"},
      {"measurement": "adverse effects (apnoea, dyspnoea, flaccid paralysis), animals affected", "setting": "guinea-pigs", "result": "1 out of 3"}
    ]},
    {"smiles": "CC(C)(C)c1cc[n+](CCC[n+]2ccc(C(C)(C)C)cc2)cc1", "values": [
      {"measurement": "Log IC50 [M]", "setting": "[2]; log10 value, inhibition of Ca2+ response to ACh 10 µM (~EC80), atropine 20 µM", "result": "−2.86 ± 0.16", "unit": "M"},
      {"measurement": "Hill slope", "setting": "[2]; ACh 10 µM", "result": "−0.89 and −0.89 ± 0.10"},
      {"measurement": "half-life (t½)", "setting": "[3]", "result": "~ 22 min"}
    ]}
  ]
}
